According to BindingDB's records for doi:10.1021/jm9705519 (National Institute On Drug Abuse-Intramural Research Program, 1998):

What was measured:
[1] = Dissociation constant(KD) of [3H]WIN-35428 at saturation in rat caudate-putamen tissue pre-incubated in buffer (Dopamine transporter)
[2] = Dissociation constant(KD) of [3H]WIN-35428 at saturation in rat caudate-putamen tissue pre-incubated in buffer at 100 nM (Dopamine transporter)

Compound: CC1CN(CCCn2c3ccccc3c3ccccc32)CC(C)N1CCCCCCN=C=S (configuration not stated) [9-{3-[4-(6-Isothiocyanato-hexyl)-3,5-dimethyl-piperazin-1-yl]-propyl}-9H-carbazole]
- Kd [1]: 17 nM
- Kd [2]: 7.6 nM
